Molecular target: human muscarinic acetylcholine M3 receptor (Homo sapiens, UniProt P20309)
Test: competitive filtration binding assay with [3H] n-methyl scopolamine (NMS)
Details: read-out: M3 Ki; membranes from CHO cells transfected with human M3 receptor; [3H]NMS 0.25 nM; 17 hours at room temperature; Cheng-Prusoff correction

Sequences of proteins named here, by UniProt entry; tags and fusion partners are left off.
UniProt P20309, whole entry, looked up: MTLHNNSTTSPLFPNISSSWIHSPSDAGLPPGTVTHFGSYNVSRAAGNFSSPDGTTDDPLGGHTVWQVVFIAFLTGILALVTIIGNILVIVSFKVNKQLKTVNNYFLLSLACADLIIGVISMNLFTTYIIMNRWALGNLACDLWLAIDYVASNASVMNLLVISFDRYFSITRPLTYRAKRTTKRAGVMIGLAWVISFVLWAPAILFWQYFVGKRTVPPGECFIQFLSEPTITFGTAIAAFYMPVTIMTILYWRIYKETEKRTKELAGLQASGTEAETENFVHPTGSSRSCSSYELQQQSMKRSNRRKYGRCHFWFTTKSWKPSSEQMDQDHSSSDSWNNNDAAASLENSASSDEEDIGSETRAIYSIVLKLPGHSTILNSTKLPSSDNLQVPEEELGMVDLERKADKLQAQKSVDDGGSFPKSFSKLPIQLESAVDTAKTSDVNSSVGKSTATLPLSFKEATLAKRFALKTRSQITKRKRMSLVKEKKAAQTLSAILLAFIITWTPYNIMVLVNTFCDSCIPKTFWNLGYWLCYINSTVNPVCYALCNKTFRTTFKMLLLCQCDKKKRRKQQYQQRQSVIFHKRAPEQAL

Row | Compound | Ki
1 | CCCCCC#CC[N+]1(C)CCC[C@H]1COC(=O)C(O)(c1ccccc1)c1ccccc1 (some centres unmarked) | 2.14 nM
2 | (1R,3R)-3-(2-Hydroxy-2,2-dithiophen-2-yl-acetoxy)-1-methyl-1-(2-phenoxy-ethyl)-piperidinium bromide | 0.75 nM
3 | C[N@@+]1(CCCc2ccccc2)CCC[C@@H](OC(=O)C(O)(c2ccccc2)c2ccccc2)C1 | 0.55 nM
4 | C[N+]1(CCc2ccccc2)CCC[C@@H]1COC(=O)C(O)(c1ccccc1)c1ccccc1 (some centres unmarked) | 0.39 nM
5 | C#CC[N+]1(C)CCC(OC(=O)C(O)(c2cccs2)c2cccs2)CC1 (centres unmarked) | 0.33 nM
6 | C[N@+]1(CCOc2ccccc2)CC[C@H](OC(=O)C(O)(c2ccccc2)c2ccccc2)CC1 | 1.3 nM
7 | C#CC[N+]1(C)CCC(OC(=O)C(O)(c2ccccc2)c2ccccc2)CC1 (centres unmarked) | 0.41 nM
8 | C[N@@+]1(CCOc2ccccc2)CCC[C@@H](OC(=O)C(O)(c2ccccc2)c2ccccc2)C1 | 0.64 nM
9 | CC(=O)OCC[N+]1(C)CCC(COC(=O)C(O)(c2cccs2)c2cccs2)CC1 (centres unmarked) | 0.88 nM
10 | C[N+]1(CCCOc2ccccc2)CCC[C@H]1COC(=O)C(O)(c1cccs1)c1cccs1 (some centres unmarked) | 0.68 nM
11 | C[N@+]1(CCOc2ccccc2)CC[C@H](OC(=O)C(O)(c2cccs2)c2cccs2)CC1 | 0.44 nM
12 | C[N+]1(CCOc2ccccc2)CCC(OC(=O)C(O)(c2ccccc2)c2ccccc2)CC1 (centres unmarked) | 1.4 nM
13 | C[N+]1(CC(=O)c2ccccc2)CCC(COC(=O)C(O)(c2ccccc2)c2ccccc2)CC1 (centres unmarked) | 3.7 nM
14 | C[N@@+]1(CCCc2ccccc2)CCC[C@@H](OC(=O)C(O)(c2cccs2)c2cccs2)C1 | 0.2 nM

From US7947730B2, “Piperidinium and pyrrolidinium derivatives as ligands for the muscarinic M3 receptor” (dated 2011)
